Experimental data reported in PubChem BioAssay AID504706 (National Center for Advancing Translational Sciences (NCATS), 2011).
Only a part is listed here, and it is no random draw. Some of these compounds have results that are not shown, active ones among them. Inconclusive results are not listed. Activity calls are given as the source filed them. The call rests on the fitted dose curve; in most records, active means well fitted activation curve with a large enough effect; inconclusive means small, poorly fitted or top-dose-only effect; inactive means no such curve, though single readings can be large or run the other way.

assay: qHTS assay for re-activators of p53 using a Luc reporter; settings: H1299 p53-A138V BP100-luciferase reporter, luminescence, 24 h; at 92.2 µM (top of the series); further: % of control where 0% means no effect; nearly all actives have a fitted effect of over 45% in size
Excerpt: The p53 tumor suppressor plays a key role in suppression of tumorigenesis and in human carcinogenesis. It is frequently found inactivated in human cancers, mainly by point mutation. These point mutations are found in a wide variety of human cancers and a majority of them affect the DNA binding domain of the protein. The point mutations either alter native p53 conformation or abolish DNA contact. Additionally, cancer cells with p53 mutations are more resistant to chemo-radiation therapies. In order to find activators to reactivate this important protein, a cell-based screen for p53-dependent luciferase-reporter expression was developed. A p53-null H1299 lung cancer cell line was stably co-transfected with a temperature sensitive p53 mutant, p53-A138V, and a p53-responsive BP100-luciferase reporter. This cell model has previously been characterized in a gene chip profiling experiment for p53 activation. By lowering the culture temperature from 37 deg C (mutant p53 conformation) to 32 deg C (w.t. p53 conformation), a 30-60 fold increase in activation of luciferase activity is observed. At assay temperate, 37 deg C, basal reporter expression is very low and after the addition of detection reagent, a luminescent read-out is carried out. NIH Chemical Genomics Center [NCGC] NIH Molecular Libraries Probe Production Centers Network [MLPCN] MLPCN Grant: DA031088-01A1 Assay Provider (PI): Yi Sung, University of Michigan at Ann Arbor
5ul of 1000 cells per well are dispensed in all wells except column 4, into white solid-bottom TC-treated Kalypsys plates. The cells are kept in Opti-MEM and supplemented with 10% FBS and dispensed using a Multidrop (Thermo). Then using the Kalypsys pin-tool, 23nl of compounds are pinned. The compounds are starting concentration at 10mM, with 1:5 dilution, 4 points, and the control compound nocodazole is pinned in column 1 at 25mM, 1:3 dilution, in duplicate, 25mM nocodazole is pinned in column 2. Please note, all concentrations are working concentrations. 5ul of 1pM purified luciferase enzyme is dispensed using the Kalypsys dispenser in column 4. Plates are incubated for 24 hrs at 37 deg C, 5% CO2, and 95% humidity. Then 4ul of the detection reagent Amplite (ABD Bioquest) is added using the Kalypsys dispenser. Plates are incubated for 10 min at ambient room temperature and are then read on the ViewLux (Perkin Elmer) using a clear filter for a luminescent read-out.

Which activity change, positive = activation does the source give for `COc1ccc(Br)c(C(=O)NCC2(N3CCCCC3)CCCCC2)c1` here?
Its activity change, positive = activation is inactive: -3.33%.

Which activity change, positive = activation does the source give for `CN(C)c1cccc(C(=O)NCC2(N(C)C)CCCCC2)c1` here?
Its activity change, positive = activation is inactive: -12.1%.

For `CC(C)Oc1ccc(C(=O)NCC2(N(C)C)CCCCC2)cc1`, which activity change, positive = activation is on record?
Its activity change, positive = activation is inactive: 2.05%.

With `CN(C)C1(CNC(=O)c2ccc(Br)cc2)CCCCC1` as the compound, how does the activity change, positive = activation read?
Its activity change, positive = activation is inactive: -4.12%.

Which activity change, positive = activation does the source give for `COc1cc(C(=O)NCC2(N(C)C)CCCCC2)c([N+](=O)[O-])cc1OC` here?
The activity change, positive = activation was inactive: 1.76%.

Which activity change, positive = activation does the source give for `COc1ccc(Cl)cc1C(=O)NCC1(N(C)C)CCCCC1` here?
The activity change, positive = activation was inactive: 1.7%.

With `COc1cccc(C(=O)NCC2(N3CCCCC3)CCCCC2)c1` as the compound, how does the activity change, positive = activation read?
The activity change, positive = activation was inactive: -1.79%.

Which activity change, positive = activation does the source give for `O=C(NCC1(N2CCCCC2)CCCCC1)c1cccc(Cl)c1` here?
The activity change, positive = activation was inactive: -4.33%.

For `CN(C)C1CCCC1OC(=O)C(O)(c1ccccc1)c1ccccc1` (stereo not drawn), which activity change, positive = activation is on record?
Its activity change, positive = activation is inactive: -7.29%.

With `CN(C)c1ccc(C(=O)NCC2(N(C)C)CCCCC2)cc1` as the compound, how does the activity change, positive = activation read?
The activity change, positive = activation was inactive: 0.126%.

Which activity change, positive = activation does the source give for `Cc1ccccc1C(=O)NCC1(N2CCCCC2)CCCCC1` here?
Its activity change, positive = activation is inactive: -1.72%.

For `O=C(NCC1(N2CCCCC2)CCCCC1)c1cc(F)c(F)cc1Cl`, which activity change, positive = activation is on record?
Its activity change, positive = activation is inactive: 2.48%.

Which activity change, positive = activation does the source give for `C=CCN1CCN(CCOC(=O)C(O)(c2ccccc2)c2ccccc2)CC1` here?
The activity change, positive = activation was inactive: -3.04%.

With `O=C(NCC1(N2CCCCC2)CCCCC1)c1cccc(Br)c1` as the compound, how does the activity change, positive = activation read?
Its activity change, positive = activation is inactive: -2.75%.

Which activity change, positive = activation does the source give for `Cc1cc(C(=O)NCC2(N3CCCCC3)CCCCC2)ccc1[N+](=O)[O-]` here?
The activity change, positive = activation was inactive: -0.835%.

Which activity change, positive = activation does the source give for `CCN1CCCC(OC(=O)C2(O)c3ccccc3C=Cc3ccccc32)C1` (stereo not drawn) here?
The activity change, positive = activation was inactive: 4.77%.

With `COc1ccc(C(=O)NCC2(N(C)C)CCCCC2)cc1` as the compound, how does the activity change, positive = activation read?
Its activity change, positive = activation is inactive: 1.66%.

Which activity change, positive = activation does the source give for `O=C(NCC1(N2CCCCC2)CCCCC1)c1cc([N+](=O)[O-])ccc1Cl` here?
The activity change, positive = activation was inactive: 8.62%.

Which activity change, positive = activation does the source give for `CN1[C@@H]2CC[C@H]1CC(OC(=O)C(O)(c1ccccc1)c1ccccc1)C2` (stereo partly drawn) here?
The activity change, positive = activation was inactive: -3.04%.

Which activity change, positive = activation does the source give for `CC(C)N1C(=O)CC2(CCN(CCOC(=O)C(O)(c3ccccc3)c3ccccc3)CC2)C1=O` here?
The activity change, positive = activation was inactive: -4.38%.

With `COc1cc(SC)ccc1C(=O)NCC1(N(C)C)CCCCC1` as the compound, how does the activity change, positive = activation read?
The activity change, positive = activation was inactive: -3.91%.

With `CCN(CC)CC(C)C(C)OC(=O)C(O)(c1ccccc1)c1ccccc1` (stereo not drawn) as the compound, how does the activity change, positive = activation read?
The activity change, positive = activation was inactive: -4.67%.

Which activity change, positive = activation does the source give for `Cc1ccc(C(=O)NCC2(N3CCCCC3)CCCCC2)cc1` here?
Its activity change, positive = activation is inactive: -0.736%.
